# In patent US12662497B2, “Benzazepine compounds, preparation method therefor and pharmaceutical use thereof” (Shanghai Senhui Medicine Co., Ltd., priority 2021, dated 2026):
# Protein sequences, listed by entry. Tags and fused reporters are not part of them.
# UniProt P30518, whole entry: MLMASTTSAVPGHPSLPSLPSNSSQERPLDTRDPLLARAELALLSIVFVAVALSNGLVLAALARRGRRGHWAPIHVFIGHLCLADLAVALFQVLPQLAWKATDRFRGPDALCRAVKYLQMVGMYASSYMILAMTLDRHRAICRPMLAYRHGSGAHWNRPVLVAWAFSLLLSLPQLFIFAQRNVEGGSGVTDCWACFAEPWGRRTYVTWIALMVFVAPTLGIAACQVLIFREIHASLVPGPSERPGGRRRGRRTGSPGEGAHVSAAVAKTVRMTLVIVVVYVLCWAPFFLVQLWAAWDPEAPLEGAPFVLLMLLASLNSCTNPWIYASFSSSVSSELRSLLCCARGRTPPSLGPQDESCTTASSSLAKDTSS
# Tests used:
# [1] = biological target: Arginine vasopressin receptor 2 (AVPR2) (Homo sapiens, UniProt P30518); assay: Arginine vasopressin receptor 2 (AVPR2) receptor cAMP assay in Flpin-CHO-AVPR2 cells; settings: arginine vasopressin stimulation
# [2] = Pharmacokinetic study in beagles (Test Example 5), intravenous drip and intragastric administration; settings: Compound 1b disodium salt 1 mg/kg i.v. drip over 1 h, mean value
# [3] = molecule detected Compound 1b disodium salt
compound,measurement,setting,value
Cc1ccccc1C(=O)Nc1ccc(C(=O)N2CCCC(OP(=O)(O)O)c3cc(Cl)ccc32)c(C)c1 (stereo not drawn),IC50,[1],47 nM
same,AUC0-t,[2]; [3],913 ng·h/mL
same,Cmax,[2]; [3],709 ng/mL
same,Tmax,[2]; [3],1 h
same,t1/2,[2]; [3],0.697 h
same,AUC0-t,[2]; molecule detected Tolvaptan,212 ng·h/mL
same,Cmax,[2]; molecule detected Tolvaptan,102 ng/mL
same,Tmax,[2]; molecule detected Tolvaptan,1.33 h
same,t1/2,[2]; molecule detected Tolvaptan,1.29 h
